Experiments:
Mono/MAC's = assay: growth inhibition of Mono/MAC's in anti-HIV test
[1] = tested on: HIV-1 infected cells (p24 production); assay: extended time course assay, p24 and XTT

COc1c(O)cc(C2COc3cc(O)cc(O)c3C2=O)cc1CC=C(C)C (racemic) [PMZ-1] was tested, and the IC50 (Mono/MAC's) was over 200 µM, the “effectiveness when added after DNA synthesis” value ([1]; added after infection) was “effective even after DNA synthesis has occurred” and the “duration of cell protection after administration” value ([1]; p24 production, compared with Nevirapine) was “more than 48 hours”.

— patent US6258839A, “Isolation of naturally occuring isoflavanone and some clinical uses thereof” (priority 1997, dated 2001)
